ARNT TACC3 PPI = disruptors of ARNT/TACC3 protein interaction, primary screen, biochemical, AlphaScreen, single concentration | Transforming acidic coiled-coil-containing protein 3 (Homo sapiens), Q9Y6A5 | AlphaScreen His-ARNT PAS-B/GST-TACC3 binding, luminescence; TACC3 fragment carries E629A point mutation | inhibition, % at 9.99 µM | actives 0.66% (n = 390,000) | AID 623870, 2012;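 active = mean inhibition of replicates at least 50% and at least half of replicates each reaching 50%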;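 note: 0% = complete ARNT plus TACC3 wells and 100% = ARNT alone without TACC3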
Vif inh = HIV Vif self-association inhibitors, primary screen, imaging, HEK293T, single point | HEK293T cells, Vif self-association by quenched fluorescence, 24 h | inhibition, % at 7.49 µM | actives 0.35% (n = 340,000); in the data active = inhibition above about 50%, passing the limit was not always enough
CAL PDZ FP-1 = CAL PDZ peptide-binding inhibitors, primary screen, biochemical, fluorescence polarization, Cer-tagged CAL PDZ, HTS. purified CAL PDZ, TMR-peptide fluorescence polarization, 1 h. actives 0.02% (n = 330,000). inhibition, % at 20 µM;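 active = highest replicate inhibition of at least 40%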;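 note: plate controls were DMSO neutral control wells for no effect and unlabeled competitor peptide control wells for full effect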
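Assay system – tagged CAL PDZ protein CerCALP, purified · Timing – 1 h at RT · Compound – single point, 20 µM · Measured by – fluorescence polarization from S- and P-plane intensities, G-factor corrected · Evaluation – inhibition from polarization loss · Probe or stimulus – TMR reporter peptide T*-PRC34 · Buffer or medium – pH 7.4 phosphate-saline buffer, reducing agent, detergent, IgG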
CAL PDZ FP-2 = untagged CAL PDZ binding inhibitors, primary screen, biochemical, fluorescence polarization, HTS; inhibition, % at 24.9 µM; purified CAL PDZ, TMR-peptide fluorescence polarization, 1 h; AID 602252, 2012; Golgi-associated PDZ and coiled-coil motif-containing protein (Homo sapiens), Q9HD26; actives 0.92% (n = 300,000);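 active = mean inhibition of at least 30% with at least half of replicates also reaching 30%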;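 note: 0% = DMSO neutral control and 100% = excess unlabeled competitor peptide PRC23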
PglD inh = C. jejuni PglD acetyltransferase inhibitors, primary screen, biochemical, DTNB colorimetric, single point; UDP-N-acetylbacillosamine N-acetyltransferase PglD (Campylobacter jejuni); purified PglD enzyme, DTNB colorimetric CoA detection; inhibition, % at 12.5 µM; actives 0.098% (n = 360,000); AID 602405, 2012; in the data active = inhibition above about 16%, passing the limit was not always enough
Yeast UUG start = modulators of yeast start codon fidelity, primary screen, whole organism, S. cerevisiae, single point, plate reader. S. cerevisiae UUG-firefly luciferase reporter, luminescence/redox ratio. activity score, % at 18.7 µM. hit rate 0.13% among 350,000;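 active = replicate mean at a twofold rise or more, about +100% in these data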;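 also: firefly luciferase made from a UUG start codon reports start codon fidelity; reporter light over untreated wells divided by growth signal over untreated wells; some hits fall short of that in this replicate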
An asterisk follows results filed as active; . = no result. The list is not random: actives were taken first. Their share in the collection is about 1.6%.

[1] Cc1ccccc1NC1=NC(=S)N(c2ccccc2)C12CCOC(C)(C)C2 (stereo not drawn)
[2] Cc1ccccc1NC1=NC(=S)N(c2ccccc2)C12CCCCC2
[3] O=C(Nc1ccc2cn[nH]c2c1)c1ccccc1F
[4] Cc1cccn2c(=O)c(/C=C3\SC(=S)NC3=O)c(NCCCN3CCOCC3)nc12
[5] CC(C)NC(=O)N(C)C[C@@H]1OCCCC[C@@H](C)Oc2ccc(NS(=O)(=O)c3ccc(Cl)cc3)cc2C(=O)N([C@@H](C)CO)C[C@@H]1C

Screen / compound no.	1	2	3	4	5
ARNT TACC3 PPI	2.1	1.7	-9.2	-1.3	-7.7
Vif inh	-2.1	-2.3	-2.0	82.8*	.
CAL PDZ FP-1	16.7	-1.1	-1.1	-3.1	.
CAL PDZ FP-2	42.0*	-5.2	85.1*	6.3	.
PglD inh	1.8	2.8	.	-10.4	-3.0
Yeast UUG start	-22.2	-17.0	.	-8.4	2.1

An excerpt from above with just ARNT TACC3 PPI and CAL PDZ FP-1:
| nr | Structure | ARNT TACC3 PPI | CAL PDZ FP-1 |
| --- | --- | --- | --- |
| 1 | Cc1ccccc1NC1=NC(=S)N(c2ccccc2)C12CCOC(C)(C)C2 (stereo not drawn) | 2.1 | 16.7 |
| 2 | Cc1ccccc1NC1=NC(=S)N(c2ccccc2)C12CCCCC2 | 1.7 | -1.1 |
| 3 | O=C(Nc1ccc2cn[nH]c2c1)c1ccccc1F | -9.2 | -1.1 |
| 4 | Cc1cccn2c(=O)c(/C=C3\SC(=S)NC3=O)c(NCCCN3CCOCC3)nc12 | -1.3 | -3.1 |

(listing goes on)
[6] CCOC(=O)N1CCC(Nc2c(Nc3ccc(F)cc3)c(=O)c2=O)CC1
[7] O=C(C[C@H]1CC[C@@H]2[C@H](COC[C@@H](O)CN2Cc2cccc(-c3ccncc3)c2)O1)N1CCCCC1
[8] COc1ccc(S(=O)(=O)Nc2ccc3c(c2)C(=O)N([C@@H](C)CO)C[C@@H](C)[C@@H](CN(C)C(=O)Nc2ccccc2)O3)cc1
[9] Cc1ccc(N(C(=O)CNC(=O)c2ccco2)C(C(=O)NCC2CCCO2)c2ccccc2)cc1C (stereo not drawn)
[10] Cc1ccc(C)c(N(C(=O)CNC(=O)c2ccco2)C(C(=O)NCC2CCCO2)c2ccccc2)c1 (stereo not drawn)

Screen / compound no.	6	7	8	9	10
ARNT TACC3 PPI	4.5	-3.0	1.9	-1.8	.
Vif inh	15.1	.	.	52.8*	2.8
CAL PDZ FP-1	-0.3	.	.	-1.7	-0.7
CAL PDZ FP-2	59.1*	.	.	-0.8	.
PglD inh	3.0	-2.8	5.7	-0.3	1.4
Yeast UUG start	-6.4	-10.1	31.5	-10.1	2.1

[11] O=C(NNC1=C(C(=O)C(F)(F)F)CCC1)c1ccccc1O
[12] O=C(NNC1=C(C(=O)C(F)(F)F)CCC1)c1ccccc1Cl
[13] Cc1cc(Cl)cc(C)c1OCC(=O)NC1CCCCCC1
[14] Cc1cc(Cl)ccc1OCC(=O)NC1CCCC1
[15] C/C=C/c1ccc2c(c1)O[C@@H](CN(C)C(=O)C1CCOCC1)[C@@H](C)CN([C@H](C)CO)S2(=O)=O

Screen / compound no.	11	12	13	14	15
ARNT TACC3 PPI	63.2*	0.8	.	-3.7	-9.5
Vif inh	0.7	-6.4	-19.4	-18.7	.
CAL PDZ FP-1	-0.3	-0.1	-0.4	-0.8	.
CAL PDZ FP-2	-1.3	-1.8	48.5*	-2.2	.
PglD inh	.	-3.1	3.9	.	-4.1
Yeast UUG start	.	-22.1	9.3	-15.3	-3.0

[16] COc1ccc(CNC(=O)C[C@H]2CC[C@@H](NS(=O)(=O)c3cccc(OC)c3)[C@H](CO)O2)cc1
[17] C[C@H](CO)N1C[C@H](C)[C@H](CN(C)C)OCCCC[C@H](C)Oc2ccc(NC(=O)Nc3ccc4c(c3)OCO4)cc2C1=O
[18] O=C(COC(=O)c1ccccc1Br)NC1CCCCCCC1
[19] O=C(COC(=O)c1ccccc1Br)NC1CCCC1
[20] C[C@H](CO)N1C[C@H](C)[C@@H](CN(C)C(=O)Nc2cccc(C(F)(F)F)c2)OCc2cnnn2CCCC1=O

Screen / compound no.	16	17	18	19	20
ARNT TACC3 PPI	-14.2	2.9	12.7	-9.0	-1.9
Vif inh	.	.	4.7	79.9*	.
CAL PDZ FP-1	.	.	-0.9	-3.6	.
CAL PDZ FP-2	.	.	1.2	-1.7	.
PglD inh	3.5	0.5	.	-0.9	-2.7
Yeast UUG start	-6.4	8.7	.	3.0	19.0

[21] O=C(O)Cc1ccc(NC(=O)COc2ccc3ccccc3c2)cc1
[22] COc1ccc(CC(=O)OCC(=O)Nc2cccc(Br)c2)cc1
[23] CC(=O)Nc1ccc(NC(=O)COC(=O)COc2ccc3ccccc3c2)cc1
[24] COc1ccc(NC(=O)COC(=O)COc2cccc(Br)c2)cc1OC
[25] COc1ccc(NC(=O)COC(=O)Cc2coc3cc(OC)ccc23)c(OC)c1

Screen / compound no.	21	22	23	24	25
ARNT TACC3 PPI	12.7	-7.1	-0.8	3.6	-6.1
Vif inh	2.6	74.2*	22.7	-5.4	-15.0
CAL PDZ FP-1	-0.5	-1.0	-0.4	11.0	-0.5
CAL PDZ FP-2	-5.4	-2.4	104.7*	35.7*	-10.2
PglD inh	-1.7	.	4.8	-3.1	-1.9
Yeast UUG start	-0.7	.	-14.6	0.2	6.2

[26] COc1ccc2c(CC(=O)OCC(=O)Nc3cccc(S(N)(=O)=O)c3)coc2c1
[27] Cc1noc(C)c1S(=O)(=O)N(C)C[C@H]1Oc2ccc(NC(=O)Nc3ccc4c(c3)OCO4)cc2C(=O)N([C@@H](C)CO)C[C@H]1C
[28] O=C(C[C@H]1C[C@@H]2c3cc(NC(=O)Nc4ccccc4)ccc3O[C@@H]2[C@H](CO)O1)NCc1ccccn1
[29] COc1ccccc1NC(=O)Cc1nnc(SCC(=O)NC2CCCC2)n1C
[30] COc1ccccc1NC(=O)Cn1nc(-c2ccncc2)nc1SCC(=O)NC1CCCC1

Screen / compound no.	26	27	28	29	30
ARNT TACC3 PPI	22.6	4.9	-2.8	.	-5.2
Vif inh	-1.5	.	.	-3.4	-0.4
CAL PDZ FP-1	-0.7	.	.	-0.1	-4.4
CAL PDZ FP-2	50.5*	.	.	.	36.2*
PglD inh	1.4	-1.9	-0.2	3.4	-2.8
Yeast UUG start	-14.5	10.3	-22.3	3.4	-11.9

[31] COc1ccccc1-c1cn(CC[C@@H]2CC[C@H](NC(=O)NC(C)C)[C@@H](CO)O2)nn1
[32] C[C@@H]1CN([C@@H](C)CO)C(=O)c2cc(NS(=O)(=O)c3ccc(F)cc3)ccc2O[C@@H](C)CCCCO[C@H]1CN(C)C(=O)Nc1ccccc1
[33] CCOc1ccc(C(=O)N[C@H](C(=O)NC2CCCCC2)C(C)C)cc1
[34] CC(C)[C@H](NC(=O)c1ccc(Br)cc1)C(=O)NC1CCCCC1
[35] CC(C)N(Cc1ccccc1)C(=O)COC(=O)c1cnc(Cl)c(Cl)c1

Screen / compound no.	31	32	33	34	35
ARNT TACC3 PPI	-7.4	-3.1	.	-3.9	0.2
Vif inh	.	.	-3.9	-10.4	23.5
CAL PDZ FP-1	.	.	.	0.4	0.0
CAL PDZ FP-2	.	.	.	86.0*	42.3*
PglD inh	0.2	-0.7	0.6	2.1	-2.9
Yeast UUG start	-2.6	-3.8	-5.3	-16.4	-15.9

[36] O=C(OCc1ccccc1)c1cnc(Cl)c(Cl)c1
[37] CC(Nc1ccc2ccccc2c1)C(=O)N/N=C/c1ccncc1 (stereo not drawn)
[38] COc1cccc(S(=O)(=O)N[C@H]2C=C[C@@H](CC(=O)NCc3ccc(Cl)cc3)O[C@@H]2CO)c1
[39] CCOC(=O)CC(=O)Nc1ncnc2c1C(c1ccccc1)c1c(ccc3ccccc13)O2 (stereo not drawn)
[40] Nc1ncnc2c1C(c1ccccc1)c1c(ccc3ccccc13)O2 (stereo not drawn)
[41] O=c1sc(N2CCN(c3ccccc3F)CC2)nc2ccsc12
[42] O=c1sc(N2CCN(c3ccc(F)cc3)CC2)nc2ccsc12

Screen / compound no.	36	37	38	39	40	41	42
ARNT TACC3 PPI	-3.3	active	-5.8	1.4	-9.1	-1.0	-4.5
Vif inh	16.0	-1.9	.	0.3	3.7	0.6	68.3*
CAL PDZ FP-1	-1.1	0.7	.	6.7	62.1*	-1.4	0.4
CAL PDZ FP-2	3.4	0.3	.	0.5	-5.0	-6.2	-4.1
PglD inh	-1.1	-0.8	-1.1	-3.2	-4.3	2.3	2.9
Yeast UUG start	-15.9	-6.6	-10.6	-13.9	-19.7	0.7	-12.3

Source: PubChem (Broad Institute)
